{
  "source": "paper PMC8494022",
  "about": "(Chemical Science, 2021)",
  "test_system": "CT26 cells",
  "test": "Cellular uptake of FITC-labeled albumin with endocytosis inhibitors",
  "type": "cell-based, murine (Balb/c)",
  "settings": "1 h inhibitor pretreatment, uptake after 3 h",
  "data": [
    {"smiles": "CN(C)CCCN1c2ccccc2Sc2ccc(Cl)cc21", "note": "[CHP, chlorpromazine]", "values": [
      {"measurement": "impact on uptake of FITC-labeled albumin", "value": "significantly reduced"}
    ]}
  ]
}
